# From US20240108601A1, “TREATMENT OF MENTAL DISORDERS” (GH Research Ireland Limited, priority 2022, published 2024)
# Key:
# [1] = LC-MS/MS of 5-MeO-DMT, bufotenine and 5-MIAA in urine, serum and breastmilk of lactating PPD patient; infant exposure estimates; conditions: second patient
# Excerpt: When determining the potential impact of maternal drug administration on a breastfed infant, it is standard practice to calculate the Relative Infant Dose (RID) (Bennett, P. N., and L. J. Notarianni. “Risk from drugs in breast milk: an analysis by relative dose.” Br J Clin Pharmacol 42.5 (1996): P673-4). The RID is the dosage (in μg/kg/day) the infant is exposed to by the intake of breast milk, divided by the dosage (in μg/kg/day) the mother receives.
# Using estimates for daily intake of breast milk and the number of feeds as well as the measured breast milk concentrations the exposure of the infant can be determined.
# For example, a published estimate for daily intake of breast milk as a function of infant weight is 150 ml/kg/day. To model the exposure, it is assumed that an infant of 5 kg is fed three times over 24 hours, receiving 250 ml breast milk each time.
# The second patient was lactating, and, per the clinical trial protocol, breastmilk samples were collected pre-dosing and at multiple timepoints after administration of the last dose. […] Similar analyses were carried out on patient serum and urine samples.
# [2] = tested on: human hepatocytes (Hμrel HumanPool co-culture); experiment: Metabolic stability in Hμrel human hepatocyte co-culture
# human hepatocytes = experiment: Metabolite identification in human hepatocyte suspension; conditions: 5-MeO-DMT free base 10 μM, incubated up to 120 minutes
# Protocol: For incubations with cryopreserved hepatocytes, the 2 mM stock solution was diluted with Leibovitz L-15 medium to a concentration of 20 μM or 2 μM. An aliquot (250 μL) of the 20 μM and 2 μM test substance formulations was added to each hepatocyte incubation sample (250 μL), as appropriate, so that the final test substance concentration in the incubations was 10 μM or 1 μM, respectively, and incubations contained less than 1% (v/v) solvent.
# Incubations were performed at ca. 37° C. in a shaking water bath (total incubation volume 0.5 mL). For 1 μM, incubations were terminated after 0, 5, 10, 20, 30, 60 and 120 minutes, by the addition of ice-cold acetonitrile (0.5 mL).
# The samples were vortex mixed and centrifuged at ca 13,000 rpm for 10 minutes at room temperature. […]
# Prior to sample analysis a 100 μL aliquot of each sample was evaporated to near dryness under a steady stream of nitrogen at room temperature, and subsequently reconstituted in 50 μL of mobile phase A (0.1% formic acid in water). Each sample (0, 30 and 120-minute, 10 μM) was analysed using accurate mass LC-MS to determine relative levels of parent compound at each time-point, and determine the profile of metabolites formed. Appropriate blank and control samples were also analysed. The 10 and 60-minute, 10 μM incubation samples were not analysed and were stored at −80° C. […]
substance,measurement,setting,value
5-Methoxyindole acetic acid [5-MIAA],Fold lower breast milk concentration at 24 hours than at one hour,[1],~400 fold
same,Urine concentration relative to serum concentration,[1]; 2.5 hours,approx. 127 times
same,Predicted hepatic extraction ratio,[2],2%
same,Relative LC/MS peak area remaining,"[2]; 1 μM Hepatocytes, 0 h",100%
same,Relative LC/MS peak area remaining,"[2]; 1 μM Hepatocytes, 1 h",98%
same,Relative LC/MS peak area remaining,"[2]; 1 μM Hepatocytes, 2 h",100%
same,Relative LC/MS peak area remaining,"[2]; 1 μM Hepatocytes, 4 h",99%
same,Relative LC/MS peak area remaining,"[2]; 1 μM Hepatocytes, 8 h",95%
same,Relative LC/MS peak area remaining,"[2]; 1 μM Hepatocytes, 24 h",99%
same,Relative LC/MS peak area remaining,"[2]; 1 μM Hepatocytes, 48 h",88%
same,Relative LC/MS peak area remaining,"[2]; 1 μM Hepatocytes, 72 h",82%
same,Relative LC/MS peak area remaining,"[2]; 1 μM Stromal cells, 0 h",100%
same,Relative LC/MS peak area remaining,"[2]; 1 μM Stromal cells, 4 h",103%
same,Relative LC/MS peak area remaining,"[2]; 1 μM Stromal cells, 8 h",107%
same,Relative LC/MS peak area remaining,"[2]; 1 μM Stromal cells, 24 h",108%
same,Relative LC/MS peak area remaining,"[2]; 1 μM Stromal cells, 48 h",111%
same,Relative LC/MS peak area remaining,"[2]; 1 μM Stromal cells, 72 h",135%
same,Relative LC/MS peak area remaining,"[2]; 10 μM Hepatocytes, 0 h",100%
same,Relative LC/MS peak area remaining,"[2]; 10 μM Hepatocytes, 1 h",97%
same,Relative LC/MS peak area remaining,"[2]; 10 μM Hepatocytes, 2 h",100%
same,Relative LC/MS peak area remaining,"[2]; 10 μM Hepatocytes, 4 h",103%
same,Relative LC/MS peak area remaining,"[2]; 10 μM Hepatocytes, 8 h",96%
same,Relative LC/MS peak area remaining,"[2]; 10 μM Hepatocytes, 24 h",96%
same,Relative LC/MS peak area remaining,"[2]; 10 μM Hepatocytes, 48 h",86%
same,Relative LC/MS peak area remaining,"[2]; 10 μM Hepatocytes, 72 h",75%
same,Relative LC/MS peak area remaining,"[2]; 10 μM Stromal cells, 0 h",100%
same,Relative LC/MS peak area remaining,"[2]; 10 μM Stromal cells, 4 h",101%
same,Relative LC/MS peak area remaining,"[2]; 10 μM Stromal cells, 8 h",106%
same,Relative LC/MS peak area remaining,"[2]; 10 μM Stromal cells, 24 h",97%
same,Relative LC/MS peak area remaining,"[2]; 10 μM Stromal cells, 48 h",103%
same,Relative LC/MS peak area remaining,"[2]; 10 μM Stromal cells, 72 h",115%
same,Half-life,"[2]; human hepatocytes, 1 μM",15 400 min
same,Relative Proportion of compounds identified,human hepatocytes; listed as 5-Methoxyindole acetic acid (5-MIAA),61%
same,Relative Proportion of compounds identified,human hepatocytes; acetic acid,about 60%
